From paper PMC5516987, “Safety and pharmacodynamics of dalazatide, a Kv1.3 channel inhibitor, in the treatment of plaque psoriasis: A randomized phase 1b trial” (PLoS ONE, 2017)
Like-named read-outs stand apart in the source and are kept apart here.

Experiments:
healthy volunteers [1] = conditions: cited from earlier work
Text: Dalazatide has been evaluated for safety and tolerability in both healthy volunteers as well as patients with plaque psoriasis. No serious adverse events, discontinuations due to adverse events, or deaths occurred during this study and none have occurred during the clinical development program for dalazatide. […] The most common treatment-related adverse events for dalazatide were instances of paresthesia and hypoesthesia that were somewhat dose dependent. […] The drug product consists of ShK -186 formulated at 1 mg/mL in an isotonic solution of water for injection and USP grade sodium phosphate (10 mM), sodium chloride (0.8%), and Polysorbate 20 (0.05%). The drug product must be di ...

[2] = cited from earlier work
Text: One potassium channel blocking drug that has been tested in humans is the nonselective potassium channel inhibitor, 4-aminopyridine (4-AP, fampridine, dalfampridine). Various formulations of 4-AP have been evaluated for their potential to increase nerve conduction and improve function in spinal cord injury, autoimmune diseases involving the nervous system, and diseases of nerve conduction. The most commonly reported adverse events are paresthesia (perioral and digital), nausea, dizziness, headache, and insomnia. Although infrequent, the most serious toxicity reported in patients treated ...

[3] = Anti-drug antibody (ADA) ELISA with immune-depletion specificity assay; format: in vivo, human; conditions: serum, Days −1, 15, 29 and 57; ELISA plus specificity assay
Text: Serum samples were collected from all patients on Days −1, 15, 29, and 57 and analyzed for dalazatide anti-drug antibodies (ADA) by a non-GLP ADA ELISA, utilizing derail dilutions of anti-dalazatide monoclonal antibody P3B3 in pooled human serum as the primary antibody and a horseradish peroxidase conjugated recombinant protein A/G secondary antibody. Optical densities for each well were obtained using a spectrophotometer set at 450 nm wavelength. Samples with readings above the ELISA cutoff point were analyzed by using an immune-depletion assay to assess antibody specificity. Samples with a ≥50% reduction of signal after incubation with dalazatide were considered to be positive for specific anti-dalazatide antibodies.

[4] = Plasma pharmacokinetics by 2D-LC-MS/MS; format: in vivo, human; conditions: for Cmax, mean (SD) / Cmax: LLOQ 75 pg/ml; for AUClast, mean (SD) / AUC(0-t): linear trapezoidal rule; for Tmax / Cmax / AUC(0-t): human; for Tmax: read-out: Tmax, median (range); for Cmax: LLOD 10 pg/ml, values between extrapolated, read-out: Cmax, mean (SD); for AUC(0-t): time 0 to last measurable point (to 4 h), read-out: AUClast, mean (SD)
Experimental: Pharmacokinetic (PK) analysis, including serum concentration, maximum concentration (Cmax), time to reach Cmax (tmax), and area under the curve (AUC) from time 0 to the last measurable time point calculated using the linear trapezoidal rule, were assessed as secondary endpoints for all patients. Plasma samples were obtained on Day 1 (predose, 0.083, 0.25, 0.5, 1, 2, and 4 hour), Day 15 (predose), and Day 29 (predose, 0.083, 0.25, 0.5, 1, 2, 4, hour). The PK samples were analyzed for dalazatide concentration by using a qualified high-sensitivity, two-dimensional liquid chromatography tandem mass spectrometry (2D-LC-MS/MS)-based assay. The lower limit of quantification (LLOQ) for the qualified method was 75 pg/ml. The lower limit of detection (LLOD) of the assay based on the standard curve was set as 10 pg/ml, and reported values for samples between the LLOQ and LLOD were extrapolated from the assay standard curve. Any samples below the LLOD were reported as below the limit of quantitation.

[5] = tested on: viral and bacterial infections; conditions: chronically treated animals, versus vehicle; cited from earlier work
Text: Dalazatide (previously referred to as ShK-186 and SL5) is a 37-amino acid synthetic peptide that is a specific inhibitor of the voltage-gated Kv1.3 potassium channel. It is a derivative of ShK, which was originally isolated from the venom of the sea anemone Stichodactyla helianthus. Human T cells rely on two potassium channels, Kv1.3 and KCa3.1 to maintain the calcium signaling required for their activation and differentiation, by maintaining a balance between calcium influx and potassium efflux. Chronically activated memory T cells that rely on upregulation of Kv1.3 expression for ...

healthy volunteers [6] = conditions: cited from earlier work; for Group-median exposure: ShK-186/198, ref study 186-01, Investigator Brochure
Experimental: The drug product consists of ShK -186 formulated at 1 mg/mL in an isotonic solution of water for injection and USP grade sodium phosphate (10 mM), sodium chloride (0.8%), and Polysorbate 20 (0.05%). The drug product must be di ...

[7] = tested on: patients with mild-to-moderate plaque psoriasis; test: Treatment-emergent adverse events, phase 1b trial; format: in vivo, human; conditions: for Discontinuation due to AE / Patients with any AE / Patients with severe AE / Related AE: Chills / Related AE: Feeling hot / Related AE: Hypoesthesia / Related AE: Injection site pain / Related AE: Muscle contractions (involuntary) / Related AE: Muscle spasms / Related AE: Paresthesia / Related AE: Sensitivity of teeth / Patients with related AE: n = 10; for Patients with related AE: related = possible, probable or definite
Experimental: The trial was a double-blind (subject and investigator), placebo-controlled study conducted at two Canadian centers. The trial was conducted under an investigational new drug application approved by the US Food and Drug Administration and the Institutional Review Board, and was performed in accordance with the Declaration of Helsinki and with the applicable International Conference on Harmonization Guidelines. A total of 24 patients with active plaque psoriasis were randomized 5:5:2 to receive dalazatide at 30 mcg/dose, 60 mcg/dose, or placebo twice weekly by subcutaneous injection into the abdominal fat pad (9 doses total) (Fig 1; S1 CONSORT Checklist and S1 Protocol). The study randomization was prepared by Innovaderm using Medrio’s Electronic Data Capture system (San Francisco, CA). The sample size chosen for this study was based upon precedent set by other studies of a similar nature and was not based on power calculations. Patients were screened to assess their eligibility to enter the study within 30 days of the Day 1 (first-dose) visit. Dose administration and evaluation were on Days 1, 4, 8, 11, 15, 18, 22, 25, and 29. Additional follow-up evaluations were on Days 32, 43, and 57. This was a double-blind, placebo-controlled study. As such, except for the specifically designated unblinded study site clinical and ancillary staff, the Investigators and remaining study site clinical staff were blinded as to treatment. The unblended staff members were not involved in any on-study data collection. Patients were enrolled in the study beginning October 2014 and the last patient last visit was in March 2015.
Safety was assessed on the basis of vital signs (weight, blood pressure, pulse, oral temperature, and respiratory rate) and physical examination on all dose administration and evaluation days. A neurological exam was performed on Days 1 and 57. Laboratory testing (urinalysis, serum chemistry, and hematology) was performed on Days −1, 8, 15, 22, 25, and 57.

[8] = Day 29 (repeat dosing, twice weekly), 60 mcg SC, n = 10, plasma, 2D-LC-MS/MS
[9] = 30 mcg/dose SC twice weekly, 9 doses
[10] = 60 mcg/dose SC twice weekly, 9 doses
[11] = all dalazatide patients (30 and 60 mcg/dose pooled)

CC[C@H](C)[C@@H]1NC(=O)[C@@H](NC(=O)[C@H](CO)NC(=O)[C@H](CCCNC(=N)N)NC(=O)COCCOCCNC(=O)[C@@H](N)Cc2ccc(OP(=O)(O)O)cc2)CSSC[C@@H](C(N)=O)NC(=O)[C@H]([C@@H](C)O)NC(=O)CNC(=O)[C@@H]2CSSC[C@@H]3NC(=O)[C@H](CCC(N)=O)NC(=O)[C@H](Cc4ccccc4)NC(=O)[C@H](C)NC(=O)[C@H]([C@@H](C)O)NC(=O)[C@H](CSSC[C@H](NC(=O)[C@H](Cc4ccccc4)NC(=O)[C@H](CO)NC(=O)[C@H](CC(C)C)NC(=O)[C@H](CCCNC(=N)N)NC(=O)[C@H](Cc4ccc(O)cc4)NC(=O)[C@H](CCCCN)NC(=O)[C@H](CCSC)NC(=O)[C@H](CO)NC(=O)[C@H](Cc4c[nH]cn4)NC(=O)[C@H](CCCCN)NC3=O)C(=O)N[C@@H](CCCNC(=N)N)C(=O)N[C@@H](CCCCN)C(=O)N[C@@H]([C@@H](C)O)C(=O)N2)NC(=O)[C@H](CCCNC(=N)N)NC(=O)[C@H](CO)NC(=O)[C@H](CCCCN)NC(=O)[C@@H]2CCCN2C(=O)[C@H]([C@@H](C)CC)NC(=O)[C@H]([C@@H](C)O)NC(=O)[C@H](CC(=O)O)NC1=O [Dalazatide]
Patients who experienced paresthesia or hypoesthesia (healthy volunteers [1]; 5 and 15 mcg/dose cohorts, ref ClinicalTrials.gov NCT02446340): only a portion of patients | Full neurological evaluations (healthy volunteers [1]; in the presence of ongoing sensory-related adverse events and after they resolved, ref NCT02446340): considered normal | Subjects with paresthesia (healthy volunteers [1]; subjects who received ≥15 µg twice weekly for 9 doses, ref study 186-02): most | Distribution across the intact blood-brain barrier [2]: not readily distributed across the intact blood-brain barrier | Patients who developed antibodies to dalazatide [3]: None | Dose proportionality of exposure (mean Cmax and AUClast) ([4]; Day 1, 30 versus 60 mcg/dose): less than dose-proportional | Cmax, mean (SD) ([4]; Day 29 (repeat dosing, twice weekly), 30 mcg SC, n = 10, plasma, 2D-LC-MS/MS): 76.7 (32.5) pg/ml | AUClast, mean (SD) ([4]; Day 29 (repeat dosing, twice weekly), 30 mcg SC, n = 10, plasma): 50.6 (23.3) h*pg/ml | Tmax, median (range) [4, 8]: 0.250 (0.0833, 0.500) hours | Cmax, mean (SD) [4, 8]: 137 (56.0) pg/ml | AUClast, mean (SD) ([4]; Day 29 (repeat dosing, twice weekly), 60 mcg SC, n = 10, plasma): 88.7 (36.3) h*pg/ml | Dose proportionality of exposure (mean Cmax and AUClast) ([4]; Day 29, 30 versus 60 mcg/dose): approximately dose proportional | Tmax ([4]; in vivo, 30 ug, Day 29 (repeat dosing, twice weekly), 30 mcg SC, n = 10, plasma, 2D-LC-MS/MS): 15 min | Cmax ([4]; Day 1 (single dose), 30 mcg SC, n = 10, plasma, 2D-LC-MS/MS): 0.0853 ng/mL | Tmax ([4]; Day 1 (single dose), 30 mcg SC, n = 10, plasma, 2D-LC-MS/MS, sampling to 4 h): 15.5 min | AUC(0-t) ([4]; Day 1 (single dose), 30 mcg SC, n = 10, plasma): 0.0553 ng·h/mL | Cmax ([4]; Day 1 (single dose), 60 mcg SC, n = 10, plasma, 2D-LC-MS/MS): 0.137 ng/mL | Tmax ([4]; Day 1 (single dose), 60 mcg SC, n = 10, plasma, 2D-LC-MS/MS, sampling to 4 h): 15 min | AUC(0-t) ([4]; Day 1 (single dose), 60 mcg SC, n = 10, plasma): 0.0784 ng·h/mL | Accumulation, Day 29 versus Day 1 ([4]; twice weekly SC dosing, 30 or 60 mcg): little or no accumulation | Clearance of viral and bacterial infections [5]: able to clear viral and bacterial infections similar to vehicle treated animals | Dose proportionality of single-dose systemic exposure (healthy volunteers [6]; 5 to 60 µg, ref study 186-01): generally dose-proportional | Group-median exposure (healthy volunteers [6]; single 15 µg dose, healthy volunteers): 0.478 ng·h/mL | Group-median exposure (healthy volunteers [6]; single 30 µg dose, healthy volunteers): 0.848 ng·h/mL | Group-median exposure (healthy volunteers [6]; single 60 µg dose, healthy volunteers): 1.42 ng·h/mL | Tolerability (healthy volunteers [6]; single doses of 5, 15, 30 and 60 µg, healthy volunteers, ref study 186-01): well tolerated | Serious adverse events or discontinuation of treatment ([7]; 30 and 60 mcg/dose SC twice weekly, 9 doses): no serious adverse events or discontinuation of treatment occurred | Discontinuation due to AE [7, 9]: 0 n (%) | Patients with any AE [7, 9]: 10 (100) n (%) | Patients with severe AE [7, 9]: 0 n (%) | Related AE: Chills [7, 9]: 1 (10) n (%) | Related AE: Feeling hot [7, 9]: 0 n (%) | Related AE: Hypoesthesia [7, 9]: 9 (90) n (%) | Related AE: Injection site pain [7, 9]: 1 (10) n (%) | Related AE: Muscle contractions (involuntary) [7, 9]: 0 n (%) | Related AE: Muscle spasms [7, 9]: 4 (40) n (%) | Related AE: Paresthesia [7, 9]: 7 (70) n (%) | Related AE: Sensitivity of teeth [7, 9]: 0 n (%) | Patients with related AE [7, 9]: 10 (100) n (%) | Discontinuation due to AE [7, 10]: 0 n (%) | Patients with any AE [7, 10]: 10 (100) n (%) | Patients with severe AE [7, 10]: 0 n (%) | Related AE: Chills [7, 10]: 2 (20) n (%) | Related AE: Feeling hot [7, 10]: 2 (20) n (%) | Related AE: Hypoesthesia [7, 10]: 8 (80) n (%) | Related AE: Injection site pain [7, 10]: 3 (30) n (%) | Related AE: Muscle contractions (involuntary) [7, 10]: 2 (20) n (%) | Related AE: Muscle spasms [7, 10]: 3 (30) n (%) | Related AE: Paresthesia [7, 10]: 7 (70) n (%) | Related AE: Sensitivity of teeth [7, 10]: 4 (40) n (%) | Patients with related AE [7, 10]: 10 (100) n (%) | Patients with headache [7, 11]: 15% | Patients with muscle spasms [7, 11]: 35% | Patients with nasopharyngitis [7, 11]: 30% | Patients with sensitivity of teeth [7, 11]: 20% | Patients with hypoesthesia ([7]; all dalazatide patients (30 and 60 mcg/dose pooled), mild (Grade 1), temporary): 85% | Patients with paresthesia ([7]; all dalazatide patients (30 and 60 mcg/dose pooled), mild (Grade 1), hands, feet or perioral area): 70% | Laboratory abnormalities and changes in vital signs ([7]; over the course of the study): No significant laboratory abnormalities or changes in vital signs
